“And” between values parts separate entries of the source, which are not always exact repeats. Equal values may be shown once.
Legend:
[1] = system: BaF3 cells expressing FLT3ITD; assay: BaF3 proliferation, colorimetric WST-1 assay; assay type: cell-based, murine; conditions: BaF3/FLT3 ITD, 48 hours, replicates
[2] = system: BaF3 cells expressing FLT3ITD-D835Y; assay: BaF3 proliferation, colorimetric WST-1 assay; conditions: BaF3/FLT3 ITD-D835Y, 48 hours, replicates
[3] = concentration 0.016 (unit not given)
[4] = concentration 0.08 (unit not given)

In the case of `CCc1nc(C(N)=O)c(Nc2ccc(N3CCC(N4CCN(C)CC4)CC3)c(OC)c2)nc1NC1CCOCC1` [Gilteritinib], the “proliferation, colorimetric assay” value [1, 3] is reported as 103.895, the “proliferation, colorimetric assay” value [1, 4] is reported as 108.033 and 107.958 and the “proliferation, colorimetric assay” value [2, 3] is reported as 99.5227. The “proliferation, colorimetric assay” value [2, 4] was 99.6691 and 103.987 and the “proliferation, colorimetric assay” value ([2]; concentration 0.4 (unit not given)) was 99.0876 and 95.701 and 107.804.
